Measurements reported in patent publication US9951111B2, “Type I interferon mimetics as therapeutics for cancer, viral infections, and multiple sclerosis” (priority 2011, dated 2018).

Experiments:
[1] = tested on: pJAK1, pTYK2, IFNAR1 and IFNAR2 in the nucleus; test: Western blot of nuclear fractions of type I IFN treated WISH cells; type: cell-based, human; conditions: versus untreated cells
WISH cells = test: Apoptosis assay, Annexin V and propidium iodide flow cytometry; conditions: 100 U/ml for 4 days, cells staining for both Annexin V and PI
[2] = IFN toxicity in vivo: body weight (FIG. 7); conditions: 1,000 U per mouse I.P. on alternate days, by day 10
lymphocytes = test: IFN toxicity in vivo: lymphocyte count on blood smears (Table 4); conditions: day 11, i.p. alternate days for ten days, IFN mimetics 2 × 10^3 U in 200 μg per mouse, IFNβ 10^3 U/mouse

Substance	IFNAR1 in the nucleus [1]	toxicity/apoptosis above controls (WISH cells)	weight loss [2]	Lymphocytes (%) (lymphocytes)	% Reduction (lymphocytes) (lymphocytes; versus PBS)
IFNα2	increased several fold	approximately 14%			
IFNβ			approximately 15%	59 ± 6%	24%
